The text below walks through data of PubChem BioAssay AID1465 (SRMLSC, 2008).

The list shows a part of the results. Measured potencies and affinities stand elsewhere. Active and inactive are the calls of the source.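 The calls were made as follows: active = fold induction of absorbance versus untreated yeast above a set limit, then at least 30% activation at any dose in follow-up; inconclusive = repeats straddling the limit, or above it without dose testing; inactive = fold induction below the set limit.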

A short description of this assay: enhancers of respiration in Yfh1-depleted yeast, dose response, Friedreich's ataxia, plus single-dose screen (AID 1465). The conditions noted are these: S. cerevisiae Yfh1-off respiration, WST-1 reduction, 72 h; at 50 µM; stronger effect = higher value. In general terms: Tetrazolium assays rely on reduction of a dye to a coloured formazan, in cell work by metabolically active cells.
As usually defined, the fold induction is the ratio of treated to control signal. For `Cc1ccc(OCC(C)C)c(CN(CCCl)CCCl)c1`, the fold induction is inactive: 1.06.
`COc1ccc(NC2CCN(CCc3ccccc3)CC2)c(OC)c1`: the fold induction is inactive: 1.03.
The result for `CCOc1ccc(C)cc1CN(CCCl)CCCl` reads inactive: 1.02; that for `O=C(OC1CN2CCC1CC2)C1c2ccccc2Oc2ccccc21` (centres undefined), inactive: 1.05.
Take `N#CC1(Nc2ccccc2)CCN(Cc2ccccc2)CC1`: the fold induction is inactive: 1.
Consider `CCOC(=O)N1CCC(Nc2ccc(OC)cc2)CC1`, for which the fold induction is inactive: 1.02.
The result for `O=C(NCC1(N2CCOCC2)CCCCC1)c1cc2ccccc2o1` reads inactive: 0.877; that for `COc1ccc(C(=O)NCC2(N3CCCCC3)CCCCC2)c(OC)c1OC`, inactive: 1.03; that for `CN1CCC(Nc2cccc(F)c2)CC1`, inactive: 1.01.
`CC(C)c1ccc(NC2CCN(C(=O)OC(C)(C)C)CC2)cc1`: the fold induction is inactive: 0.85.
As to `COc1ccc(CN(CCCl)CCCl)cc1Cl`, the fold induction was inactive: 0.89.
In the case of `CN(C)c1cccc(C(=O)NCC2(N3CCCCC3)CCCCC2)c1`, the fold induction was inactive: 1.05.
Take `O=C(NCC1(N2CCOCC2)CCCCC1)c1cc(=O)[nH]c2ccccc12`: the fold induction was inactive: 1.07.
Take `CN1CCN(CCOC(=O)C(O)(c2ccccc2)c2ccccc2)CC1`: the fold induction is inactive: 0.88.
The result for `COc1ccc(NC2CCN(C(=O)OC(C)(C)C)CC2)cc1` reads inactive: 1.06.
On to `N#CC1(Nc2ccccc2)CCN(CCc2ccccc2)CC1`, for which the fold induction was inactive: 1.04.
As for `O=C(NCC1(N2CCCCC2)CCCCC1)c1cccc([N+](=O)[O-])c1`, the figure is inactive: 0.98.
As for `c1ccc(CN2CCC(Nc3ccccc3)CC2)cc1`, the figure is inactive: 1.01; as for `N#Cc1ccc(C(=O)NCC2(N3CCCCC3)CCCCC2)cc1`, inactive: 1.05.
For the compound `O=C(OC1CN2CCC1CC2)C1c2ccccc2C=Cc2ccccc21` (centres undefined), the fold induction is inactive: 1.09.
As for `COc1ccc(C(=O)NCC2(N3CCOCC3)CCCCC2)cc1OC`, the figure is inactive: 1.02; as for `CCCOc1ccc(C)cc1CN(CCCl)CCCl`, inactive: 1.02; as for `COc1cc(OC)cc(C(=O)NCC2(N3CCOCC3)CCCCC2)c1`, inactive: 1.12.
Turning to `CCC(CO)(C(=O)OC1CN2CCC1CC2)c1ccccc1` (centres undefined), the fold induction is inactive: 1.01.
As for `CC(C)(C)OC(=O)N1CCC(Nc2ccccc2)CC1`, the figure is inactive: 0.92; as for `CCOc1ncccc1C(=O)NCC1(N2CCOCC2)CCCCC1`, inactive: 1.01; as for `CN(C)c1ccc(C(=O)NCC2(N3CCCCC3)CCCCC2)cc1`, inactive: 0.98.
As for `CCN1CCC(Nc2cccc(F)c2)CC1`, the fold induction was inactive: 0.99.
As for `Fc1ccccc1NC1CCN(Cc2ccccc2)CC1`, the figure is inactive: 0.98.
